# Data from US20200397855A1, “MODULATION OF PLA2-G1B IN THERAPY” (priority 2018, published 2020).
# Sequences of proteins named here, by UniProt entry; tags and fusion partners are left off. Residues count along the entry.
# UniProt Q07021, 74-282 limits assumed: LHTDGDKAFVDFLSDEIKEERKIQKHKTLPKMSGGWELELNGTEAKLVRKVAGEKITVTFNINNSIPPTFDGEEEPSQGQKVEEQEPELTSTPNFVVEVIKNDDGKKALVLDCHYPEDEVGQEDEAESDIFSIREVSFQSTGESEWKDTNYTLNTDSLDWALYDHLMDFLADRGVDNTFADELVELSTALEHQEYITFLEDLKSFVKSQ
# Where “and” joins values, the source holds several entries; their conditions need not be identical. Equal entries are not always repeated.
# Biological target: gC1qR at the surface of human CD4 T cells / Jurkat E6.1 T cells (human) (UniProt Q07021)
# Experiment: cell-based or functional assay
substance,measurement,value
Complement component C1q from human serum (Sigma C1740) (from UniProt P02745 23-245; P02746 28-253; P02747 29-245) (ligand),inhibition of pSTAT5 NT in CD4 T cells by C1q alone,40%
same,inhibition of pSTAT5 NT in CD4 T cells by C1q with PLA2-GIB,75% and 85%
